From US9155709B1, “Buffered hydroalcoholic povidone iodine composition and method” (priority 2014, dated 2015)

Format: physicochemical
Source text: Also, while in the preferred embodiment, povidone iodine constitutes about Wt. % 10, preferably 10-11% of the total of the buffered stock and alcoholic solutions prior to their combination, the relative amounts of the two solutions to be combined can be adjusted to provide povidone iodine at from about Wt. % 2-10% of the total of the two solutions prior to their combination. Similarly, adjusting the amount of povidone iodine in the stock solution before combining it with the selected alcoholic solution can produce the same ratios of povidone iodine. Such adjustments would also change the relative amounts of the other ingredients present in the solutions. It may also be possible to exclude or adjust the amount of one or more of the citric acid, sodium phosphate dibasic, sodium hydroxide, glycerin, nonoxynol-9, or MAKON 8 in the stock solution and still produce an effective topical composition. However, the specific ratio of active ingredients is particularly important, specifically with respect to the benzalkonium chloride which should not be blended at a higher concentration due to solubility issues. Based on laboratory experimentation, solutions formed as described in Example 1 below with greater than 0.13% Benzalkonium Chloride cause the ingredient to “crash out” and render the solution useless. […]

Substance: Benzalkonium Chloride
- Benzalkonium Chloride concentration at which the ingredient crashes out of solution: greater than 0.13%
- Benzalkonium chloride concentration at which it loses solubility in solution: above 0.13%
